For this experiment, the species on record is Homo sapiens. In words: Selectivity ratio of Kd for recombinant human N-terminal GSt-tagged TNKS1 (1000 to 1328 residues) expressed in baculovirus infected Sf9 cells to Kd for recombinant human N-terminal His-tagged TNKS2 (Ser959 to Gly1166 residues) expressed in Escherichia coli.

For the compound `C=CCc1cc(O)c(O)c(-c2cc(CC=C)cc(OC)c2O)c1`, the Selectivity ratio worked out at 25.

These data come from ChEMBL document CHEMBL4229413, “Identification by Inverse Virtual Screening of magnolol-based scaffold as new tankyrase-2 inhibitors” (Bioorg Med Chem, 2018).
